From patent US20240199535A1, “DEUTERATED DHODH INHIBITORS” (priority 2021, published 2024)

Test system: SARS-CoV-2
Experiment: Antiviral activity on SARS-CoV-2, viral replication (YFP) assay
Format: cell-based
Details: read-out: EC50 range

[2H]C([2H])([2H])Oc1cccc(-c2ccc(NC(=O)C3=C(C(=O)O)CCC3)c(F)c2)c1 [Example 1, 2-((3-Fluoro-3′-(methoxy-d3)-[1,1′-biphenyl]-4-yl)carbamoyl)cyclopent-1-ene-1-carboxylic Acid] showed an EC50 of under 10 µM.
